# Test results reported in PMC8550792, “Evolution of kinase polypharmacology across HSP90 drug discovery” (Cell Chemical Biology, 2021).
# Sequences of proteins named here, by UniProt entry; tags and fusion partners are left off. A change or cut given only in a name is not applied to a line headed by its entry. Residues count along the entry.
# UniProt Q08345, 19-913: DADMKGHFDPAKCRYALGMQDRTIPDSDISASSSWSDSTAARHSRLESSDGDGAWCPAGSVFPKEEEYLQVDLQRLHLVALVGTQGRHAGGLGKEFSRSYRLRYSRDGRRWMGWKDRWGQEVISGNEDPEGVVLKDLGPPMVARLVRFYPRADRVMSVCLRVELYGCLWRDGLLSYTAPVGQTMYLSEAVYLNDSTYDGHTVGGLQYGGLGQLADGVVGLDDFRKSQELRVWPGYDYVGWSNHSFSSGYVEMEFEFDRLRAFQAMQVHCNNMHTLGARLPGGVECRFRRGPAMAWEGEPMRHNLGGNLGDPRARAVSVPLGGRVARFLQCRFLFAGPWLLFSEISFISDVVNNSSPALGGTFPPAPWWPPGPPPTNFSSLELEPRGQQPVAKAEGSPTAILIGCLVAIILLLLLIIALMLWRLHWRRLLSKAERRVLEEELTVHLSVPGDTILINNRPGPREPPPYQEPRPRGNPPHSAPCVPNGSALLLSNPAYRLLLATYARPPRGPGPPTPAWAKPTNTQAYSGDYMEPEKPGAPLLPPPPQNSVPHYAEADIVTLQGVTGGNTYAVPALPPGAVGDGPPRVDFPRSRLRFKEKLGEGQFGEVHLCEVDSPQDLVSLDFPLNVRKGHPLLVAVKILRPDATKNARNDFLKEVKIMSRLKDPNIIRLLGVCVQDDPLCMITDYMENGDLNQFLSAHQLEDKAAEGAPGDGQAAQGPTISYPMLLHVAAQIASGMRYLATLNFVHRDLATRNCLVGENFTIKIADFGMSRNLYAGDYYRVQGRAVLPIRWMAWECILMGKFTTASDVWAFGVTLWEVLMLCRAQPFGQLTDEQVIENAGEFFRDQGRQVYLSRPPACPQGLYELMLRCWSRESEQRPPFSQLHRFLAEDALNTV
# UniProt P42684, whole entry: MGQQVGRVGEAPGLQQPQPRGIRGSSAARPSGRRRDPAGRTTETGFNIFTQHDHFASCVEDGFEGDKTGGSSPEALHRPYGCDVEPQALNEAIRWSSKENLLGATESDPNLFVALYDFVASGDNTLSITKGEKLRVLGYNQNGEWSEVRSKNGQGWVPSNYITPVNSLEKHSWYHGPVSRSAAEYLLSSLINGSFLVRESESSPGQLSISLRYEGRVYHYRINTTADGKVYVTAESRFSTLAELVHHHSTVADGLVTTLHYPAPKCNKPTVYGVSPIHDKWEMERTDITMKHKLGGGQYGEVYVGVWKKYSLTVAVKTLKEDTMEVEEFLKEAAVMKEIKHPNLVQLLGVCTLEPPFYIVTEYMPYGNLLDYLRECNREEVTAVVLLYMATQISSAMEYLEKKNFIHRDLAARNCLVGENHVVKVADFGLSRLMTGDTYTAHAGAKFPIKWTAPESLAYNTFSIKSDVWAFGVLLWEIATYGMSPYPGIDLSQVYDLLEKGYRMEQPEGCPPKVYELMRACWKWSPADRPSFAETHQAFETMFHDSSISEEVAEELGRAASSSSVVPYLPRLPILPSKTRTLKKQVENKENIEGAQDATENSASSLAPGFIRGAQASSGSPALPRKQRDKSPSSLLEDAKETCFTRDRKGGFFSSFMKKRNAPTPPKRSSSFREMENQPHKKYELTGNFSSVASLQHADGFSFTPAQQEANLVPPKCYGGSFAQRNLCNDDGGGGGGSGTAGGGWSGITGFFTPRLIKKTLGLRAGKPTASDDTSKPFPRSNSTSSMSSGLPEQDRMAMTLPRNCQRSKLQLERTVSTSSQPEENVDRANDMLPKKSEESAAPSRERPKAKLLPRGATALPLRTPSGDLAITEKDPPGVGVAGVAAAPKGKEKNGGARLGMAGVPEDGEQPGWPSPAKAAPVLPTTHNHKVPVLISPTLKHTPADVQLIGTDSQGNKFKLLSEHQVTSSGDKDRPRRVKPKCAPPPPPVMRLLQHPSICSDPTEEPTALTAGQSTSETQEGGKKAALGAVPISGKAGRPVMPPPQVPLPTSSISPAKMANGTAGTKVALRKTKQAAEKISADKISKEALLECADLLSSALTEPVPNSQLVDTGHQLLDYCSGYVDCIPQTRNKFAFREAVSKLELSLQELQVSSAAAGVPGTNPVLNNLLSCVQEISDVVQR
# UniProt Q16654, whole entry: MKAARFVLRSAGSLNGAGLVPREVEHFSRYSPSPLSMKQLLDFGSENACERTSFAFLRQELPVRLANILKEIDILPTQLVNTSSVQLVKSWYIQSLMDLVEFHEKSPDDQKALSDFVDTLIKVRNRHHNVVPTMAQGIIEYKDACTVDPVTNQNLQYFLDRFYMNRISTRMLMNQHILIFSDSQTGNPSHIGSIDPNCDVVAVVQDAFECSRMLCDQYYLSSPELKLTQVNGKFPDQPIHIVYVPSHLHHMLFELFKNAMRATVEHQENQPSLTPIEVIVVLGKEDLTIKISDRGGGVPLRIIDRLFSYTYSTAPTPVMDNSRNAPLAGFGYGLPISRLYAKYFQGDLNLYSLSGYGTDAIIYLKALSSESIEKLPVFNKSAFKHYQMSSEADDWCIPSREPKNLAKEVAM
# UniProt P51451: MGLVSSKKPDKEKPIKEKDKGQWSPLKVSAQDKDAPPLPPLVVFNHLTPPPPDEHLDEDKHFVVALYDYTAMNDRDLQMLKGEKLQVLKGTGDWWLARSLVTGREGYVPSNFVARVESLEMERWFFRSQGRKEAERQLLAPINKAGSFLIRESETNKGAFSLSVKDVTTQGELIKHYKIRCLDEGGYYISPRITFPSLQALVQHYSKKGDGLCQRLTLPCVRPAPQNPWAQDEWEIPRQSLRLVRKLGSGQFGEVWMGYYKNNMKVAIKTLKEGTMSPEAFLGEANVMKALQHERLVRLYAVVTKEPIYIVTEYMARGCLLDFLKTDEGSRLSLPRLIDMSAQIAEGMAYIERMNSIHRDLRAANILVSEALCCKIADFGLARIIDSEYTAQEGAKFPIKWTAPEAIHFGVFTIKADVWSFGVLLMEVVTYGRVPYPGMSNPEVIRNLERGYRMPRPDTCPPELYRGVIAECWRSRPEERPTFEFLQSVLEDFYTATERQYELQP
# UniProt P04629, 33-796: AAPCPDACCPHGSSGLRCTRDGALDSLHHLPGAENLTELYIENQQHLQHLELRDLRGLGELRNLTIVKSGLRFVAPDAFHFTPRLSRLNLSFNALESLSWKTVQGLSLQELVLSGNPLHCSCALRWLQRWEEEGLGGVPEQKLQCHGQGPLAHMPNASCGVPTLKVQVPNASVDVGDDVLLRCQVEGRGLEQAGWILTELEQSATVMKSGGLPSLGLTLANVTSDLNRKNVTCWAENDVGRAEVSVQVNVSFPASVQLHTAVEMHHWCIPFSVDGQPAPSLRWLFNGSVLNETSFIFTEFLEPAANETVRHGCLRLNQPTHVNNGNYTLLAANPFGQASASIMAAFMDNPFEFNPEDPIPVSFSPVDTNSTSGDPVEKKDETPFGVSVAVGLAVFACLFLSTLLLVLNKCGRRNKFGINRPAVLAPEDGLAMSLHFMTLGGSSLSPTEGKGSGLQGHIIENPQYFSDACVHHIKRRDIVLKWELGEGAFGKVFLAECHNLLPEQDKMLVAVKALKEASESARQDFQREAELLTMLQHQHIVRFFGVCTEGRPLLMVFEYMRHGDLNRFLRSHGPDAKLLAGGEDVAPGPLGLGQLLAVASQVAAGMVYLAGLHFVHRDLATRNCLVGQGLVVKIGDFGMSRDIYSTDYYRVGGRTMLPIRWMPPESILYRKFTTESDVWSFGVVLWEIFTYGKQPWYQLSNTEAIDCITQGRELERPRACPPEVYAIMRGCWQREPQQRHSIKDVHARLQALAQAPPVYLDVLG
# UniProt P07947, whole entry: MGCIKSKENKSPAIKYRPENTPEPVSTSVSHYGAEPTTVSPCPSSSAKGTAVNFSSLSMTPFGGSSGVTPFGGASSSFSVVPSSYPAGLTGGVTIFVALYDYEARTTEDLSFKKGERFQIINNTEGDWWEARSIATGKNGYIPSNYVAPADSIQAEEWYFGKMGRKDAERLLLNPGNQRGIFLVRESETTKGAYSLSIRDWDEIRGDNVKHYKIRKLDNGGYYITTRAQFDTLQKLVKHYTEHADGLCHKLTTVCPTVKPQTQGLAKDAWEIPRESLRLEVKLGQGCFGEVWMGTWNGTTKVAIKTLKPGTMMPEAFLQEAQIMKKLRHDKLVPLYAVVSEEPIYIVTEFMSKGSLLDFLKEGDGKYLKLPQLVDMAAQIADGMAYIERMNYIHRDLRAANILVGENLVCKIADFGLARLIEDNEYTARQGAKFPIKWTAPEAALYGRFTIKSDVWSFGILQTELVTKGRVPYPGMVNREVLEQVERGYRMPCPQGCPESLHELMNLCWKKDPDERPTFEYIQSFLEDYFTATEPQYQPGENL
# UniProt P06241, whole entry: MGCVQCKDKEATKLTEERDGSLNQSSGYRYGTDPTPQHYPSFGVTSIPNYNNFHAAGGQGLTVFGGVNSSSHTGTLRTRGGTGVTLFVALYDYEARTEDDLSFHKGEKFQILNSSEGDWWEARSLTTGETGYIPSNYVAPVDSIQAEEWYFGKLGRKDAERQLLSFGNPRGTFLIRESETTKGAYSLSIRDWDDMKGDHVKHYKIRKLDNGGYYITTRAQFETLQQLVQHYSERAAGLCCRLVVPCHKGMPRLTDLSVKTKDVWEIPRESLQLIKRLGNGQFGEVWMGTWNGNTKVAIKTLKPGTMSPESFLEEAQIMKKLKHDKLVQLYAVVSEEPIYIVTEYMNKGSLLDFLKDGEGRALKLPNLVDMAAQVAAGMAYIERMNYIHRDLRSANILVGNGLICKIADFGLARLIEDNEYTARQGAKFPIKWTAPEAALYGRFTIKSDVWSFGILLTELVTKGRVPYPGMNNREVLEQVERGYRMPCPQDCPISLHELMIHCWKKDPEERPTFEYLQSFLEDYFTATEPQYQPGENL
# UniProt Q9H792: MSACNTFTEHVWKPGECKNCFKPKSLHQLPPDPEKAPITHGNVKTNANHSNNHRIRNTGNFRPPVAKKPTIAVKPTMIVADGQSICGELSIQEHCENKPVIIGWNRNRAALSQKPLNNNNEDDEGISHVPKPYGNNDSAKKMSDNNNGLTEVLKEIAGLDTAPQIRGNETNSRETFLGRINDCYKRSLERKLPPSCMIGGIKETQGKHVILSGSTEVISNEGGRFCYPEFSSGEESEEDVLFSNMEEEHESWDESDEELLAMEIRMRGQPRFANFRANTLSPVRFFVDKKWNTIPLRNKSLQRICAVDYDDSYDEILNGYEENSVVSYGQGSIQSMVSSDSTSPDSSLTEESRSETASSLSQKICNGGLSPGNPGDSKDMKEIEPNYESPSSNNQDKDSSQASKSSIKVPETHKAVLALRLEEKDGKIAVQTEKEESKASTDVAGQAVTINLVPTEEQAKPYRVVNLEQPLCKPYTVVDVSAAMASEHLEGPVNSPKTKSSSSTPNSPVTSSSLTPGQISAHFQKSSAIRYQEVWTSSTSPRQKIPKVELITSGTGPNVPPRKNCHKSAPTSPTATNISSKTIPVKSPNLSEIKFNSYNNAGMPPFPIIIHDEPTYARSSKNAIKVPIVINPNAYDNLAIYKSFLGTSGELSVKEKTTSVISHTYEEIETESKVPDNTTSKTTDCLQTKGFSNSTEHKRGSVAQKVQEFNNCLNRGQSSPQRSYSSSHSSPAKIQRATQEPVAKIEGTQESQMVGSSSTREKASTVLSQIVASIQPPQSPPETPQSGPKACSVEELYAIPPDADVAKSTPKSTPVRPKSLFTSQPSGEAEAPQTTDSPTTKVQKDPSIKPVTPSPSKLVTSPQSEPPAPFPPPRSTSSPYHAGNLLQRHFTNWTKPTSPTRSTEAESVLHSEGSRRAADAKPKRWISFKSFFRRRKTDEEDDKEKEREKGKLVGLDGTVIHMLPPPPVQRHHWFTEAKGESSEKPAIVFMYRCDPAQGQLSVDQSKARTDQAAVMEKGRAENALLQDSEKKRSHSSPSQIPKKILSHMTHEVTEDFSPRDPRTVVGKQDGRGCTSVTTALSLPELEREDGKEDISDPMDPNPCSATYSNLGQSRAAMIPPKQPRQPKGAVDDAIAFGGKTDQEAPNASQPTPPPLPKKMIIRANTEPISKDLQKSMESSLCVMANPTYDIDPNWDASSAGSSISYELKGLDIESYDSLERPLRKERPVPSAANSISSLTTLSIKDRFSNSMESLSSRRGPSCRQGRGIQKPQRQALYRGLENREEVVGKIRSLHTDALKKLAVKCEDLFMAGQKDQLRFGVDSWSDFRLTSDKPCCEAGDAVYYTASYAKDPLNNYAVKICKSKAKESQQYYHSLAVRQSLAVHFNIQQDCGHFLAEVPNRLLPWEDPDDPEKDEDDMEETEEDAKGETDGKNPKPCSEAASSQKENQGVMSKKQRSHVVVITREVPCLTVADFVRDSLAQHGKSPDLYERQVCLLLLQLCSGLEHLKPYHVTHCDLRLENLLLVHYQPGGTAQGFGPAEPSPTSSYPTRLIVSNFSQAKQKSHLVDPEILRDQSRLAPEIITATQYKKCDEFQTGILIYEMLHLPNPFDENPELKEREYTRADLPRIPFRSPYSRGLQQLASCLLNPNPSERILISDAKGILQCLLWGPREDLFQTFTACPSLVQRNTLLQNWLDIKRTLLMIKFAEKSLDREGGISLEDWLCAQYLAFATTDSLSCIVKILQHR
# “And” between values parts separate entries of the source, which are not always exact repeats. Equal entries are not always repeated.
# Experiments:
# [1] = biological target: DDR1 (Homo sapiens, UniProt Q08345); experiment: HotSpot in vitro kinase radiometric assay; type: biochemical; parameters: purchased Reaction Biology (HotSpot contract assay); conditions: 10uM, ATP 100 uM, Data 1, Data 2
# [2] = biological target: T1, c-Src (Homo sapiens, UniProt P12931); experiment: HotSpot in vitro kinase radiometric assay; type: biochemical; conditions: 10uM, ATP 15 uM, Data 1, Data 2
# T1 construct: purchased Reaction Biology (HotSpot contract assay)
# [3] = biological target: T2, ABL2/ARG (Homo sapiens, UniProt P42684); experiment: HotSpot in vitro kinase radiometric assay; type: biochemical; conditions: 10uM, ATP 30 uM, Data 1, Data 2
# T2 construct: purchased Reaction Biology (HotSpot contract assay)
# [4] = biological target: T3, TRKC (Homo sapiens, UniProt Q16288); experiment: HotSpot in vitro kinase radiometric assay; type: biochemical; conditions: 10uM, ATP 100 uM, Data 1, Data 2
# T3 construct: purchased Reaction Biology (HotSpot contract assay)
# T3 sequence (Q16288 32-839): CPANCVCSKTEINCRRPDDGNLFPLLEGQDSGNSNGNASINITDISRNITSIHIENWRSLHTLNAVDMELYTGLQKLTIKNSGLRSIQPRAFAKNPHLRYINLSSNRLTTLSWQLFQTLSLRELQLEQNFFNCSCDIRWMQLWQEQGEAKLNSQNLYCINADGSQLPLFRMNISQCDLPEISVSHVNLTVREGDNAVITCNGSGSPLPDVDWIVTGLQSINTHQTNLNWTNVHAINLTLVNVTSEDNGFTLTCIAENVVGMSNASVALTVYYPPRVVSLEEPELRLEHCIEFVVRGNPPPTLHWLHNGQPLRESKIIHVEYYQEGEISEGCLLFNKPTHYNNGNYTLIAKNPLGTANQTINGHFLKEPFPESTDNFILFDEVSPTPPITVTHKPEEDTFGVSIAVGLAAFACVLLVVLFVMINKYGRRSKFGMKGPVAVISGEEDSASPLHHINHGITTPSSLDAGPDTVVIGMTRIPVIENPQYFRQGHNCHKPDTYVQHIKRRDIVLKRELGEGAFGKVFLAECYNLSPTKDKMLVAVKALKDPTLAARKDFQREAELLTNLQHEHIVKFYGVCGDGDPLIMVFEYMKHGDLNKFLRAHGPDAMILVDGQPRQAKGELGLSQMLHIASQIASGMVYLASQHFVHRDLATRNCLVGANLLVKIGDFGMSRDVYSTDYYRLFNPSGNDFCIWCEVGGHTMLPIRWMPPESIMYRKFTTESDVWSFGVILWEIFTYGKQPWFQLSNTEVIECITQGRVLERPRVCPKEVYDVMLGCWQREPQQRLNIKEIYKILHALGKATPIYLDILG
# [5] = biological target: T4, PDK2/PDHK2 (Homo sapiens, UniProt Q15119); experiment: HotSpot in vitro kinase radiometric assay; type: biochemical; conditions: 10uM, ATP 15 uM, Data 1, Data 2
# T4 construct: purchased Reaction Biology (HotSpot contract assay)
# [6] = biological target: T5, PDK4/PDKH4 (Homo sapiens, UniProt Q16654); experiment: HotSpot in vitro kinase radiometric assay; type: biochemical; conditions: ATP 30 uM
# T5 construct: purchased Reaction Biology (HotSpot contract assay)
# [7] = biological target: T6, BLK (Homo sapiens, UniProt P51451); experiment: HotSpot in vitro kinase radiometric assay; type: biochemical; conditions: 10uM, ATP 10 uM, Data 1, Data 2
# T6 construct: purchased Reaction Biology (HotSpot contract assay)
# [8] = biological target: T7, TRKA (Homo sapiens, UniProt P04629); experiment: HotSpot in vitro kinase radiometric assay; type: biochemical; conditions: 10uM, ATP 100 uM, Data 1, Data 2
# T7 construct: purchased Reaction Biology (HotSpot contract assay)
# [9] = biological target: T8, LCK (Homo sapiens, UniProt P06239); experiment: HotSpot in vitro kinase radiometric assay; type: biochemical; conditions: 10uM, ATP 15 uM, Data 1, Data 2
# T8 construct: purchased Reaction Biology (HotSpot contract assay)
# [10] = system: HSP90AA1; conditions: average of reported values; ref ChEMBL23 (accessed: 23/08/2018); cited from earlier work
# [11] = biological target: T9, LYN B (Homo sapiens, UniProt P07948); experiment: HotSpot in vitro kinase radiometric assay; type: biochemical; conditions: 10uM, ATP 20 uM, Data 1, Data 2
# T9 construct: purchased Reaction Biology (HotSpot contract assay)
# [12] = biological target: T10, YES/YES1 (Homo sapiens, UniProt P07947); experiment: HotSpot in vitro kinase radiometric assay; type: biochemical; conditions: 10uM, ATP 50 uM, Data 1, Data 2
# T10 construct: purchased Reaction Biology (HotSpot contract assay)
# [13] = biological target: T11, FYN (Homo sapiens, UniProt P06241); experiment: HotSpot in vitro kinase radiometric assay; type: biochemical; conditions: 10uM, ATP 30 uM, Data 1, Data 2
# T11 construct: purchased Reaction Biology (HotSpot contract assay)
# [14] = biological target: T12, FGR (Homo sapiens, UniProt P09769); experiment: HotSpot in vitro kinase radiometric assay; type: biochemical; conditions: 10uM, ATP 50 uM, Data 1, Data 2
# T12 construct: purchased Reaction Biology (HotSpot contract assay)
# [15] = system: CBR1; conditions: average of reported values; ref ChEMBL23 (accessed: 23/08/2018); cited from earlier work
# [16] = biological target: ABL1 (Homo sapiens, UniProt P00519); experiment: HotSpot in vitro kinase radiometric assay; type: biochemical; parameters: purchased Reaction Biology (HotSpot contract assay); conditions: 10uM, ATP 40 uM, Data 1, Data 2
# [17] = system: HSP90AB1; conditions: average of reported values; ref ChEMBL23 (accessed: 23/08/2018); cited from earlier work
# [18] = biological target: T13, PASK (Homo sapiens, UniProt Q96RG2); experiment: HotSpot in vitro kinase radiometric assay; type: biochemical; conditions: 10uM, ATP 50 uM, Data 1, Data 2
# T13 construct: purchased Reaction Biology (HotSpot contract assay)
# [19] = biological target: T14, PEAK1 (Homo sapiens, UniProt Q9H792); experiment: HotSpot in vitro kinase radiometric assay; type: biochemical; conditions: 10uM, ATP 30 uM, Data 1, Data 2
# T14 construct: purchased Reaction Biology (HotSpot contract assay)
# [20] = biological target: T15, 382 unique human kinases (Homo sapiens, UniProt Q9NZJ5); conditions: read-out: Control Compound IC50*; EIF2AK3
# T15 sequence (Q9NZJ5 30-1116): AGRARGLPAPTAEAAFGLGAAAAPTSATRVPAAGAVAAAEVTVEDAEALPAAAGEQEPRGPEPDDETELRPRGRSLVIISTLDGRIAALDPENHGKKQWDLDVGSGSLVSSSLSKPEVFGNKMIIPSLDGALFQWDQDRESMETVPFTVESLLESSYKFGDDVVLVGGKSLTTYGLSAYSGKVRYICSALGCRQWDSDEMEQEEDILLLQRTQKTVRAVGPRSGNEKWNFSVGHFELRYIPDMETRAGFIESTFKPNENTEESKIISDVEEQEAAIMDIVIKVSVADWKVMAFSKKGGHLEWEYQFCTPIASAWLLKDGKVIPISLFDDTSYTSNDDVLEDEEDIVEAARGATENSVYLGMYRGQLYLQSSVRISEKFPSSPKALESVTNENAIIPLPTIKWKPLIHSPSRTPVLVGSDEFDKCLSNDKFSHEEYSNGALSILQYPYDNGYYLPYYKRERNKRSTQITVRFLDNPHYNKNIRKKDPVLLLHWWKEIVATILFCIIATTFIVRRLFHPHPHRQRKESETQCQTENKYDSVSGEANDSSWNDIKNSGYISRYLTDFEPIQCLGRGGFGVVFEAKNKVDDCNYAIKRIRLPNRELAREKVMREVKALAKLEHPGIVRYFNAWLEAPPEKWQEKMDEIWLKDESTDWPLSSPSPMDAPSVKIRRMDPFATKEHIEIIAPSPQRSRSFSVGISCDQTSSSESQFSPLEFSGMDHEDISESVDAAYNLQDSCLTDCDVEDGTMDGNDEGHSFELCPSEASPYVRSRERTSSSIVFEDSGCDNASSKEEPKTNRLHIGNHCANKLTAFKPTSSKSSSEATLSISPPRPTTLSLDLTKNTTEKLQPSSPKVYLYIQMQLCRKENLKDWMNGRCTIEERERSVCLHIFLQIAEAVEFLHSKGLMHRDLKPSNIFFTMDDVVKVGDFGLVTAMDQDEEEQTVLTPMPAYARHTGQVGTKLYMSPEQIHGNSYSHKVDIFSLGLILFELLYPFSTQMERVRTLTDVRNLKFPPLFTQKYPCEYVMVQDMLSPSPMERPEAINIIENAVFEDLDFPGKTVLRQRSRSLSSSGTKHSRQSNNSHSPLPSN
structure (smiles),measurement,setting,value
C[C@@H]1C[C@H]2O[C@@H]2/C=C\C=C\C(=O)Cc2c(Cl)c(O)cc(O)c2C(=O)O1 [Radicicol],% Enzyme Activity (relative to DMSO controls),[1],105.98%
same,% Enzyme Activity (relative to DMSO controls),[2],103.4%
same,% Enzyme Activity (relative to DMSO controls),[3],112.62%
same,% Enzyme Activity (relative to DMSO controls),[4],97.14%
same,% Enzyme Activity (relative to DMSO controls),[5],115.9% and 95.66%
same,% Enzyme Activity (relative to DMSO controls),"[6]; 10uM, Data 1, Data 2",99.74%
same,remaining activity at 10 µM,"[6]; Data 1, Data 2, read-out: % Enzyme Activity (relative to DMSO controls)",94.2%
same,% Enzyme Activity (relative to DMSO controls),[7],111.62%
same,% Enzyme Activity (relative to DMSO controls),[8],106.48%
same,% Enzyme Activity (relative to DMSO controls),[9],118%
same,"pActivity, HSP90AA1",[10],7.7
same,% Enzyme Activity (relative to DMSO controls),[11],115.59%
same,% Enzyme Activity (relative to DMSO controls),[12],104.61%
same,% Enzyme Activity (relative to DMSO controls),[13],110.97%
same,% Enzyme Activity (relative to DMSO controls),[14],118%
same,"pActivity, CBR1",[15],5.88
same,% Enzyme Activity (relative to DMSO controls),[16],109.61%
same,"pActivity, HSP90AB1",[17],7.6
same,% Enzyme Activity (relative to DMSO controls),[18],104.19%
same,% Enzyme Activity (relative to DMSO controls),[19],108.68%
Cn1cc(-c2ccc3c(c2)CCN3C(=O)Cc2cccc(C(F)(F)F)c2)c2c(N)ncnc21 [GSK-2606414],IC50,[20],0.553 nM
